Values joined by “and” are separate entries in the source; they are usually repeats but may differ in a detail not shown here. Equal entries are not always repeated.
Biological target: eIF4E (Homo sapiens, UniProt P06730)
Assay: biochemical

Chains of the proteins cited; added tags and fusions are not shown. Residues count along the entry.
UniProt P06730, 32-217: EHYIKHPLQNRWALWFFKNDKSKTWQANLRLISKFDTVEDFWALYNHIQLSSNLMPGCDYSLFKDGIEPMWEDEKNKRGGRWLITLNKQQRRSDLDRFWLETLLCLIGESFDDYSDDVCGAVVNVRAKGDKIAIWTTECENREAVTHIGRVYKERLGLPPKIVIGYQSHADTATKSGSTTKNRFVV

For `C[n+]1cn([C@@H]2O[C@H](COP(=O)(O)OP(=O)([O-])OP(=O)(O)OC[C@H]3O[C@@H](n4cnc5c(=O)[nH]c(N)nc54)[C@H](O)[C@@H]3O)[C@@H](O)[C@@H]2O)c2nc(N)[nH]c(=O)c21` [Compound 005-11], the Kd was 6.8 µM and 7 µM.

From patent US20190225644A1, “MRNA CAP ANALOGS AND METHODS OF MRNA CAPPING” (ModernaTX, Inc., priority 2015, published 2019)
